Earlier results, collected in US6927272B2, “Electronic component-use material and electronic component using it” (Matsushita Electric Industrial Co., Ltd., priority 2001, dated 2005).

Conditions: room temperature (20-30° C.)

kadethrin
Vapor Pressure: 100,000 nPa
